This test concerns the target Urokinase-type plasminogen activator (Homo sapiens, UniProt P00749). As to the kind of experiment: Inhibitory activity against Urokinase-type plasminogen activator.

Here are results for 1 compound from ChEMBL document CHEMBL1137073, “Development of irreversible diphenyl phosphonate inhibitors for urokinase plasminogen activator” (J Med Chem, 2004).

For `C[C@H](NC(=O)[C@@H](CO)NC(=O)OCc1ccccc1)C(=O)NC(CCCN=C(N)N)P(=O)(Oc1ccccc1)Oc1ccccc1` (stereo partly specified), the K app came out at 1.77 M⁻¹ s⁻¹.
